The test system of one series is bacteria infected mice. Put plainly: In vivo therapeutic effect on bacteria infected mice.
In series [1] the test system is GM-resistant, MCR-resistant and cefazolin-resistant strains. Briefly: In vitro MIC on resistant strains. It is filed as cell-based. An excerpt:
[…]. […] […]

The nature of series [2]: in vivo. The following applies: mouse.
The nature of series [3]: in vivo. The note with it: rat, ip.
Series [4] is described as follows: in vivo. The note with it: mouse. This is another data set of the same source.
Series [5] in a line: in vivo. The following applies: rat.

For the compound `CCNC1CC(N)C(OC2OC(CN)CCC2N)C(O)C1OC1OCC(C)(O)C(NC)C1O` (stereo not drawn), the “negative-turning ratio, culture of heart blood of survival mice” value with bacteria infected mice is on record as “good negative-turning ratio”. For the same compound, the “MIC values relative to effective serum concentration range” value in series [1] was “half or more than half of GM-resistant, MCR-resistant and cefazolin-resistant strains are within its effective serum concentration range”. For the same compound, the LD50 in the series “in vivo [2]” (im) was determined as 173 mg/kg; in the series “in vivo [2]” (iv), 65.5 mg/kg; in the series “in vivo [2]” (sc) it was 480 mg/kg; in the series “in vivo [4]” (iv), 79.9 mg/kg; in “in vivo [4]” (sc), 460 mg/kg; in the series “in vivo [5]” (im), 565 mg/kg. For the same compound, the figures for the 50% lethal dose (LD50) in the series “in vivo [5]” (ip), in “in vivo [5]” (iv) and in “in vivo [5]” (sc) were 628 mg/kg, 73.8 mg/kg and 403 mg/kg, respectively. This compound also showed an NOAEL at 2160 h in the series “in vivo [3]” of 30 mg/kg/day.

Source of the values: patent US5814488A.
